Here are results for 1 substance from publication PMC3395220 (Journal of Medicinal Chemistry, 2012).

Data set [1] in a line: Plasma pharmacokinetics. In kind it is in vivo, CD-1 mice. Particulars: mice, iv 1 mg/kg.
For data set [2] the following is noted: intravenous every two days; ref Literature data; cited from earlier work.

Regarding mithramycin [Compound 1], the plasma level entry was “approximately 2,7 μM” in data set [1] (after 5 min), “approximately 0,2 μM” in data set [1] (after 30 min) and “below 0,1 μM” in data set [1] (after 120 min). Moreover, in data set [2], the “Maximum tolerated dose, IV repeated dose q2dx8” value is recorded as 0.6 mg/kg ^b.
